Assay results from US20110217290A1, “TREATMENT AND/OR PREVENTION OF PEANUT INDUCED ANAPHYLAXIS” (priority 2009, published 2011).

Tested on: histamine
Experiment: Plasma histamine after peanut challenge (enzyme immunoassay)
Parameters: species or system C57BL/6 mice
Settings: mouse, in vivo

CC(c1cc2ccccc2s1)N(O)C(N)=O (stereo not shown) [Zileuton]
levels of histamine in plasma, untreated vs. treated mice: comparable levels
